Results as given in paper PMC6033010, “A Targeted LC‐MS Strategy for Low‐Abundant HLA Class‐I‐Presented Peptide Detection Identifies Novel Human Papillomavirus T‐Cell Epitopes” (Proteomics, 2018).

Biological target: T1, HLA‐A2 (Homo sapiens, UniProt P04439, D140Y/D185E/D98H/E176V/E277Q/G131W/G231S/I119V/I121R/I166T/I218V/L300P/L318F/N151K/N90K/P208A/P217A/Q86G/Q94H/R138H/R169H/T345S)
T1 construct: host or cells: BSM cells (HLA-A2+, HPV16-negative suspension cell line)
Experiment: In vitro competition-based cellular binding assay
Description: In Vitro Competition Based Binding Assays: In vitro competition‐based binding assays were performed as described in ref. 30. In brief, BSM cells were treated with citric acid buffer to strip off naturally presented peptides. Cells were incubated overnight at 4 °C with β2M, a constant concentration (150 nM) of fluorescein‐labeled HLA‐A2‐binding reference peptide (FLPSDC(Fl)FPSV), and six different concentrations (0.78 –100 μM) of the respective investigated non‐labeled peptide, competing for HLA‐binding. Fluorescence was measured by flow cytometry and data processed with FlowJo 10 (TreeStar, Ashland, OR, USA). A logistic four‐parametric non‐linear regression calculation using SigmaPlot 13 (Systat‐Software, San José, CA, USA) was conducted to calculate binding affinity (IC50). […] The assay was performed with at least three biological replicates for binders and two for non‐binders.

SMILES | IC50 [µM] | IC50 (acid-stripped BSM cells, β2M, 150 nM fluorescein-labeled reference peptide FLPSDC(Fl)FPSV, test peptide 0.78–100 μM, overnight 4 °C, flow cytometry, mean of at least three experimental replicates, read-out: Experimental binding affinity [IC50(μM)]) [µM]
CSCC[C@H](NC(=O)[C@H](Cc1ccc(O)cc1)NC(=O)[C@H](CCC(=O)O)NC(=O)[C@H](Cc1cnc[nH]1)NC(=O)[C@H](CC(C)C)NC(=O)[C@@H](N)[C@@H](C)O)C(=O)N[C@@H](CC(C)C)C(=O)N[C@@H](CC(=O)O)C(=O)N[C@@H](CC(C)C)C(=O)O [E7_7–15] | 2.68 | 
CSCC[C@H](NC(=O)[C@@H](N)Cc1ccc(O)cc1)C(=O)N[C@@H](CC(C)C)C(=O)N[C@@H](CC(=O)O)C(=O)N[C@@H](CC(C)C)C(=O)N[C@@H](CCC(N)=O)C(=O)N1CCC[C@H]1C(=O)N[C@@H](CCC(=O)O)C(=O)N[C@H](C(=O)N[C@H](C(=O)O)[C@@H](C)O)[C@@H](C)O [E7_11–20] |  | 2.19

Like-named read-outs stand apart in the source and are kept apart here.
